Measurements from US11202833B2, “Methylglyoxal-scavenging cyclic peptides and their use for the prevention and treatment of diseases associated with elevated methylglyoxal levels” (RUPRECHT-KARLS-UNIVERSITÄT HEIDELBERG, priority 2016, dated 2021).

Assay: MG scavenging in vitro (MG half-life by HPLC)

Compound: CN(C)C(=N)N=C(N)N [Met, metformin]
- MG scavenging (in words): slow
